{"source": "PubChem BioAssay AID2100", "about": "(National Center for Advancing Translational Sciences (NCATS), 2009)", "target": "Lysosomal alpha-glucosidase (Homo sapiens) (UniProt P10253)", "assay": "qHTS Assay for Inhibitors and Activators of Human alpha-Glucosidase Cleavage of Glycogen;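 note: 0% = full enzyme reaction and -100% = no-enzyme basal signal; the screen sought inhibitors and activators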", "conditions": "recombinant GAA, glycogen substrate, Amplex Red glucose oxidase fluorescence", "description": "NIH Chemical Genomics Center [NCGC] NIH Molecular Libraries Probe Production Centers Network [MLPCN] MLPCN Grant: R03 MH084841-01 Assay Submitter (PI): Wei Zheng NCGC Assay Overview: Alpha-glucosidase is responsible for the hydrolysis of terminal, non-reducing 1,4-linked alpha-D-glucose residues, which releases alpha-D-glucose. It is a lysosomal hydrolase that is required for the degradation of a small percentage (1-3%) of cellular glycogen in humans. Deficiency of this enzyme results in glycogen-storage disease type II (GSDII), also referred to as Pompe disease, an autosomal recessive disorder. Structurally normal glycogen is accumulated in the lysosomes and cytoplasm in affected patients, primarily in muscle tissues. Excessive glycogen storage within lysosomes may interrupt normal functioning of other organelles and leads to cellular injury. In turn, this leads to enlargement and dysfunction of the entire organ involved (eg: cardiomyopathy and muscle weakness). It has been reported that the improper folding and trafficking of alpha-glucosidase resulting from genetic mutations may account for a significant number of Pompe patients. […] We optimized this alpha-glucosidase assay in 1536-well plate format for identification of novel small molecule inhibitors or activators with structures other than the sugar analogs in order to develop new pharmacological chaperones. Previous assays of alpha-Glucosidase have utilized a non-natural fluorescent substrate to probe enzyme activity. The present assay measures enzyme activity on glycogen using a coupled-assay system to glucose oxidase.\nNCGC Assay Protocol Summary: This is an enzyme assay using glycogen from bovine liver (Sigma catalog #: G0885) as the substrate and recombinant human alpha-glucosidase as the enzyme preparation. Upon hydrolysis of the substrate, the glucose product can be detected using the Amplex Red Glucose Oxidase Assay Kit (Invitrogen catalog #: A22189). The product of this reaction can be read with a fluorescence plate reader with an excitation at 573 nm and an emission at 610 nm. Data were normalized to the controls for basal activity (without enzyme) and 100% activity (with enzyme). The AC50 values were determined from concentration-response data modeled with the standard Hill equation. Assay buffer for enzyme reaction: 50 mM citric acid (titrated with potassium phosphate to pH 5.0), 0.01% Tween-20 (pH 5.0 is an optimal condition for this enzyme assay) Assay buffer for Amplex Red reaction: Tris-HCl, pH 7.5 1536-well assay protocol for the alpha-glucosidase assay: (1) Add 2 ul/well alpha-glucosidase enzyme solution (4 nM final) (2) Add 23 nL compounds in DMSO solution. The final titration was 0.7 nM to 77 uM. (3) Add 1 ul of glycogen substrate solution (30 ug) (4) Incubate at 37 C for 40 min (5) Add 2 ul tris-HCl buffer with Amplex Red reagents (6) Incubate 45 min at room temperature. (7) Detect the assay plate in a ViewLux plate reader (PerkinElmer) with Ex=573 nm and Em=610nm. Keywords: Alpha-glucosidase, Pompe Disease, pharmacological chaperone, chaperone therapy, high throughput screening, alpha-glucosidase inhibitor, MLSMR, MLSCN, NIH Roadmap, qHTS and NCGC", "key": {"[1]": {"conditions": "at 76.4 µM (top of the series) unless noted"}}, "note": "The entries are a selection whose mix differs from that of the whole data set. Some results for these compounds are left out of this collection, so the calls shown say nothing about other tests. Results filed as inconclusive are left out. Active and inactive are the calls of the source. Calls come from the whole dose curve; as a rule, active = well fitted inhibition curve with a large enough effect; inconclusive = small, poorly fitted or top-dose-only effect, or another doubt; inactive = no such curve, though single readings can be large or run the other way."}
{"compound": "COc1cc(C(=O)NCC2(N(C)C)CCCCC2)c([N+](=O)[O-])cc1OC", "values": [{"measurement": "activity change, negative = inhibition", "setting": "[1]", "result": "inactive: 2.28%"}]}
{"compound": "CN(C)C1(CNC(=O)c2ccc(Br)cc2)CCCCC1", "values": [{"measurement": "activity change, negative = inhibition", "setting": "[1]", "result": "inactive: -7.4%"}]}
{"compound": "O=C(NCC1(N2CCCCC2)CCCCC1)c1cccc(Cl)c1", "values": [{"measurement": "activity change, negative = inhibition", "setting": "[1]", "result": "inactive: -5.3%"}]}
{"compound": "COc1ccc(C(=O)NCC2(N(C)C)CCCCC2)cc1Cl", "values": [{"measurement": "activity change, negative = inhibition", "setting": "[1]", "result": "inactive: 11.9% [at 76.3 µM]"}]}
{"compound": "COc1cccc(C(=O)NCC2(N3CCCCC3)CCCCC2)c1", "values": [{"measurement": "activity change, negative = inhibition", "setting": "[1]", "result": "inactive: 11.4%"}]}
{"compound": "COc1ccc(Cl)cc1C(=O)NCC1(N(C)C)CCCCC1", "values": [{"measurement": "activity change, negative = inhibition", "setting": "[1]", "result": "inactive: 5.23%"}]}
{"compound": "CC(C)COc1ccc(C(=O)NCC2(N(C)C)CCCCC2)cc1", "values": [{"measurement": "activity change, negative = inhibition", "setting": "[1]", "result": "inactive: -7.52% [at 76.3 µM]"}]}
{"compound": "O=C(OC1CN2CCC1CC2)C(CO)(c1ccccc1)c1ccccc1", "note": "(centres undefined)", "values": [{"measurement": "activity change, negative = inhibition", "setting": "[1]", "result": "inactive: -0.372%"}]}
{"compound": "COc1cccc(C(=O)NCC2(N3CCOCC3)CCCCC2)c1", "values": [{"measurement": "activity change, negative = inhibition", "setting": "[1]", "result": "inactive: 4.64% [at 76.3 µM]"}]}
{"compound": "CN(C)c1cccc(C(=O)NCC2(N(C)C)CCCCC2)c1", "values": [{"measurement": "activity change, negative = inhibition", "setting": "[1]", "result": "inactive: -10.7%"}]}
{"compound": "CC(C)Oc1ccc(C(=O)NCC2(N(C)C)CCCCC2)cc1", "values": [{"measurement": "activity change, negative = inhibition", "setting": "at 76.3 µM (top of the series)", "result": "inactive: 16%"}, {"measurement": "activity change, negative = inhibition", "setting": "at 76.4 µM (top of the series)", "result": "inactive: -13.4%"}]}
{"compound": "COc1cc(C(=O)NCC2(N(C)C)CCCCC2)cc(OC)c1OC", "values": [{"measurement": "activity change, negative = inhibition", "setting": "[1]", "result": "inactive: 7.71% [at 76.3 µM]"}]}
{"compound": "Cc1cccc(C(=O)NCC2(N(C)C)CCCCC2)c1", "values": [{"measurement": "activity change, negative = inhibition", "setting": "[1]", "result": "inactive: 5.93% [at 76.3 µM]"}]}
{"compound": "CN1[C@@H]2CC[C@H]1CC(OC(=O)C(O)(c1ccccc1)c1ccccc1)C2", "note": "(some centres undefined)", "values": [{"measurement": "activity change, negative = inhibition", "setting": "[1]", "result": "inactive: 2.44%"}]}
{"compound": "O=C(NCC1(N2CCCCC2)CCCCC1)c1cc([N+](=O)[O-])ccc1Cl", "values": [{"measurement": "activity change, negative = inhibition", "setting": "[1]", "result": "inactive: -2.21%"}]}
{"compound": "CN(C)C1(CNC(=O)c2ccccc2F)CCCCC1", "values": [{"measurement": "activity change, negative = inhibition", "setting": "[1]", "result": "inactive: 15.9% [at 76.3 µM]"}]}
{"compound": "Cc1ccc(C(=O)NCC2(N3CCCCC3)CCCCC2)cc1", "values": [{"measurement": "activity change, negative = inhibition", "setting": "[1]", "result": "inactive: -13.2% [at 76.3 µM]"}]}
{"compound": "CC(C)N1C(=O)CC2(CCN(CCOC(=O)C(O)(c3ccccc3)c3ccccc3)CC2)C1=O", "values": [{"measurement": "activity change, negative = inhibition", "setting": "[1]", "result": "inactive: 6.27%"}]}
{"compound": "CN(C)C1(CNC(=O)c2cccc(Cl)c2)CCCCC1", "values": [{"measurement": "activity change, negative = inhibition", "setting": "[1]", "result": "inactive: 17.2% [at 76.3 µM]"}]}
{"compound": "CCN(CC)CC(C)C(C)OC(=O)C(O)(c1ccccc1)c1ccccc1", "note": "(centres undefined)", "values": [{"measurement": "activity change, negative = inhibition", "setting": "[1]", "result": "inactive: 2.86%"}]}
{"compound": "COc1cc(SC)ccc1C(=O)NCC1(N(C)C)CCCCC1", "values": [{"measurement": "activity change, negative = inhibition", "setting": "[1]", "result": "inactive: 2.11%"}]}
{"compound": "CCCCOc1ccccc1C(=O)NCC1(N(C)C)CCCCC1", "values": [{"measurement": "activity change, negative = inhibition", "setting": "[1]", "result": "inactive: 13.1% [at 76.3 µM]"}]}
{"compound": "Cc1ccccc1C(=O)NCC1(N2CCCCC2)CCCCC1", "values": [{"measurement": "activity change, negative = inhibition", "setting": "[1]", "result": "inactive: 8.96%"}]}
{"compound": "CN(C)C1(CNC(=O)c2ccccc2[N+](=O)[O-])CCCCC1", "values": [{"measurement": "activity change, negative = inhibition", "setting": "[1]", "result": "inactive: 0.714% [at 76.3 µM]"}]}
{"compound": "CN(C)c1ccc(C(=O)NCC2(N(C)C)CCCCC2)cc1", "values": [{"measurement": "activity change, negative = inhibition", "setting": "[1]", "result": "inactive: 5.21%"}]}
{"compound": "CN(C)C1CCCC1OC(=O)C(O)(c1ccccc1)c1ccccc1", "note": "(centres undefined)", "values": [{"measurement": "activity change, negative = inhibition", "setting": "[1]", "result": "inactive: 8.55%"}]}
{"compound": "CCN1CCCC(OC(=O)C2(O)c3ccccc3C=Cc3ccccc32)C1", "note": "(centres undefined)", "values": [{"measurement": "activity change, negative = inhibition", "setting": "[1]", "result": "inactive: 1.08%"}]}
{"compound": "Cc1cc(C(=O)NCC2(N3CCCCC3)CCCCC2)ccc1[N+](=O)[O-]", "values": [{"measurement": "activity change, negative = inhibition", "setting": "[1]", "result": "inactive: 10.9%"}]}
{"compound": "O=C(NCC1(N2CCCCC2)CCCCC1)c1cccc(Br)c1", "values": [{"measurement": "activity change, negative = inhibition", "setting": "[1]", "result": "inactive: 2.73%"}]}
{"compound": "COc1ccc(C(=O)NCC2(N(C)C)CCCCC2)cc1", "values": [{"measurement": "activity change, negative = inhibition", "setting": "[1]", "result": "inactive: -13.2%"}]}
{"compound": "CCOc1cccc(C(=O)NCC2(N(C)C)CCCCC2)c1", "values": [{"measurement": "activity change, negative = inhibition", "setting": "[1]", "result": "inactive: -1.24% [at 76.3 µM]"}]}
{"compound": "C=CCN1CCN(CCOC(=O)C(O)(c2ccccc2)c2ccccc2)CC1", "values": [{"measurement": "activity change, negative = inhibition", "setting": "[1]", "result": "inactive: 11.6%"}]}
{"compound": "O=C(NCC1(N2CCCCC2)CCCCC1)c1cc(F)c(F)cc1Cl", "values": [{"measurement": "activity change, negative = inhibition", "setting": "[1]", "result": "inactive: -7.5% [at 76.3 µM]"}]}
